A selection: hits, their analogues and other compounds. The true share with any hit is near 16%.
uPA generation: cell surface uPA generation inhibition. 330,000 tested, 0.31% active. AID 540303. cell surface uPA generation assay, qHTS. Potency, µM (highest dose often 38.3 µM), usual class: inhibitors; active means well fitted inhibition curve with a large enough effect; inconclusive means small, poorly fitted or top-dose-only effect; inactive means no such curve, though single readings can be large or run the other way; tested in mouse RAW 264.7 cells; further: nearly all actives have a fitted effect of over 55% in size
TDP1 cell CPT: growth inhibition of DT40 Tdp1-/-;hTDP1 cells with camptothecin (screen for TDP1 inhibitors). chicken DT40 Tdp1-/-;hTDP1 cells + 20 nM CPT, ATP luminescence, 48 h. Potency, µM (top dose mostly 46.2 µM), hits mostly inhibitors. 420,000 tested, 12% active; further: nearly all actives have a fitted effect of over 55% in size
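Cell growth measured by CellTiter-Glo luminescence after a minimum 48 h, 37 C compound exposure with 20 nM CPT in Tdp1-knockout DT40 cells stably expressing hTDP1, seeded 400/well; qHTS titration format.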
miR-21 reporter: raises the signal of a miR-21 reporter | Potency, µM (doses to about 38.3 µM) | HeLa miR-21 FLuc reporter, luciferase, 48 h | AID 2288 | 340,000 tested, under 10 active; active = well fitted rising curve with a large enough effect; inconclusive = small, poorly fitted or top-dose-only effect; inactive = no such curve, though single readings can be large or run the other way;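 also: miR-21 action dims this reporter so a rising signal means less miR-21 action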
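HeLa miR-21-FLuc reporter line, endogenous miR-21; 2000 cells/well in DMEM/10% FBS; compound titration up to ~40uM final, 48 h, 37 degree Celsius; luciferase detection reagent, 15 min lysis, CCD luminescence.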
TDP1 cell noCPT: qHTS for Inhibitors of human tyrosyl-DNA phosphodiesterase 1 (TDP1): qHTS in cells in absence of CPT. DT40 Tdp1-/- hTDP1 cells, no CPT, ATP luminescence, 48 h. Potency, µM (highest dose often 46.2 µM), usual class: inhibitors. 420,000 tested, 15% active; further: nearly all actives have a fitted effect of over 55% in size
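Readout: luminescence from CellTiter-Glo after 30 min in the dark at RT. Cells: DT40 Tdp1-/- with stable hTDP1, 400/well. Exposure: compounds alone, ≥48 hr, 37 °C.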
TDP1 inh: blocks human tyrosyl-DNA phosphodiesterase 1. Q9NUW8. recombinant TDP1, AlphaScreen DNA substrate cleavage. Potency, µM (top dose mostly 130 µM), most hits filed as inhibitors. 350,000 tested, 0.28% active. AID 485290; further: nearly all actives have a fitted effect of over 40% in size
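E. coli-derived human Tdp1, 1 nM final. Cpd preinc 15 min RT; substrate 15 nM final, 5 min RT; AS bead mix 10 ug/ml final, 10 min RT. Signal loss = tyrosine-FITC cleavage. No-enzyme wells = max signal.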
Of the large screens only hits and unclear results are named; the others gave an inactive call. Unless noted, the call rests on the fitted dose curve; in most records, active means well fitted curve in the direction sought with a large enough effect; inconclusive means small, poorly fitted or top-dose-only effect, or another doubt; inactive means no such curve, though single readings can be large; an effect the other way counts as inactive or inconclusive.

Cn1c(=O)c2c(SCC(=O)N3CCCC3)nc(CC(C)(C)C)nc2n(C)c1=O	TDP1 cell CPT inconclusive, TDP1 cell noCPT inconclusive
Cc1ccc2nc(Cl)c(C3CC(c4cccs4)=NN3C(=O)CCC(=O)O)cc2c1 (configuration not stated)	TDP1 cell noCPT 5.2µM
Cc1ccc(C2CC(c3cccs3)=NN2C(=O)CSc2nc3ccccc3o2)cc1 (configuration not stated)	TDP1 cell CPT 15µM, TDP1 cell noCPT inconclusive
COc1ccc(C2CC(c3cccs3)=NN2C(=O)CSc2nc(=O)n3ccc(C)cc3n2)cc1 (configuration not stated)	TDP1 cell CPT inconclusive, TDP1 cell noCPT 5.8µM (no result: miR-21 reporter)
Cc1ccc2nc(Cl)c(C3CC(c4ccco4)=NN3C(=O)CCCC(=O)O)cc2c1 (configuration not stated)	none (no result: TDP1 inh)
Nn1c(SCC(=O)NCCN2C(=O)CSC2=O)nnc1-c1ccc(OC(F)F)cc1	none (no result: miR-21 reporter)
CC(C)(C)NC(=O)CSc1ncnc2c1cnn2-c1ccccc1	TDP1 cell CPT inconclusive, TDP1 cell noCPT inconclusive (no result: TDP1 inh)
O=C(CSc1ncnc2c1cnn2-c1ccc(F)cc1)NC1CCCC1	TDP1 cell CPT 18µM, TDP1 cell noCPT 21µM
O=C(CSc1ncnc2c1cnn2-c1ccc(F)cc1)NCC1CCCO1 (configuration not stated)	TDP1 cell CPT inconclusive, TDP1 cell noCPT inconclusive
O=C(CSc1ncnc2c1cnn2-c1ccccc1)NC1CCS(=O)(=O)C1 (configuration not stated)	TDP1 cell noCPT 8.2µM (no result: miR-21 reporter)
N#Cc1c(-c2cccnc2)cc(-c2ccccc2)nc1N	uPA generation inconclusive, TDP1 cell noCPT inconclusive
CCNC(=O)C1CCCN(C(=O)c2ccc(OC)cc2)CC1 (configuration not stated)	none (no result: uPA generation, miR-21 reporter, TDP1 inh)
CCOc1ccc(NC(=O)C2CCN(S(C)(=O)=O)CC2)cc1	uPA generation inconclusive, TDP1 cell CPT inconclusive (no result: TDP1 inh)
COc1cc(OC)cc(-c2cc3nc(C)c(CCC(=O)NCCc4cccc(C)c4)c(C)n3n2)c1	TDP1 cell CPT 16µM, TDP1 cell noCPT inconclusive (no result: uPA generation)
COc1cccc(Oc2ccc(C(F)(F)F)cc2NC(=O)CCc2nc3ccccc3c(=O)[nH]2)c1	uPA generation inconclusive, TDP1 cell CPT 16µM, TDP1 cell noCPT 18µM
COc1ccccc1-c1cc2nc(C)c(CCC(=O)NCCc3ccc(SC)cc3)c(C)n2n1	TDP1 cell CPT inconclusive, miR-21 reporter inconclusive, TDP1 cell noCPT 21µM (no result: uPA generation)
O=C(CCc1nc2ccccc2c(=O)[nH]1)Nc1cc(C(F)(F)F)ccc1N1CCOCC1	TDP1 cell CPT inconclusive, TDP1 cell noCPT inconclusive (no result: miR-21 reporter)
COc1ccc(CCNC(=O)CCc2c(C)nc3cc(-c4cccc(F)c4)nn3c2C)cc1OC	TDP1 cell CPT 8.2µM, TDP1 cell noCPT 8.2µM (no result: uPA generation)
COC(=O)/C=C/C1=CN(Cc2ccccc2)CCC1=O	none (no result: miR-21 reporter)
COc1ccccc1-c1cc2nc(C)c(CCC(=O)Nc3cc(C)ccc3C)c(C)n2n1	TDP1 cell CPT inconclusive, TDP1 cell noCPT inconclusive (no result: uPA generation)
COc1cc(OC)cc(-c2cc3nc(C)c(CCC(=O)Nc4ccccc4OC)c(C)n3n2)c1	TDP1 cell CPT inconclusive, miR-21 reporter inconclusive, TDP1 cell noCPT 23µM (no result: uPA generation)
COc1ccc(-c2cc3nc(C)c(CCC(=O)NCc4ccccc4Cl)c(C)n3n2)c(OC)c1	TDP1 cell CPT 18µM, TDP1 cell noCPT 13µM (no result: uPA generation)
COc1cc(OC)cc(-c2cc3nc(C)c(CCC(=O)NCc4ccccc4)c(C)n3n2)c1	TDP1 cell CPT inconclusive, miR-21 reporter inconclusive, TDP1 cell noCPT 18µM
Cc1nc2cc(-c3ccccc3)nn2c(C)c1CCC(=O)NCc1cccc(Cl)c1	TDP1 cell CPT 26µM, TDP1 cell noCPT inconclusive (no result: uPA generation)
COc1cc(OC)cc(-c2cc3nc(C)c(CCC(=O)NCc4ccc(Cl)cc4)c(C)n3n2)c1	TDP1 cell CPT inconclusive, miR-21 reporter inconclusive, TDP1 cell noCPT inconclusive (no result: uPA generation)
Cc1cccc(C)c1N(CC(=O)N1CCN(C)CC1)S(C)(=O)=O	none
O=C(CCc1nc2ccccc2c(=O)[nH]1)NCc1cccc(Cl)c1	TDP1 cell CPT 21µM, TDP1 cell noCPT 23µM
CC(C)c1ccc(OCc2cc(=O)n3c(-c4ccccc4)csc3n2)cc1	TDP1 cell CPT inconclusive, TDP1 cell noCPT 26µM (no result: uPA generation)
CCCCCCCCCCCCCCCC(C)C1=NCCN1 (configuration not stated)	TDP1 cell CPT inconclusive (no result: uPA generation, miR-21 reporter, TDP1 inh)
COc1ccc(/C=N/NC(=O)c2cnccn2)cc1O	none
COc1ccc(/C=N/NC(=O)c2cc3c(OC)ccc(OC)c3[nH]2)cc1O	TDP1 cell CPT 0.37µM, TDP1 cell noCPT 0.21µM (no result: TDP1 inh)
COc1ccc(OC)c2[nH]c(C(=O)N/N=C/c3ccccc3O)cc12	uPA generation inconclusive, TDP1 cell CPT 5.2µM, TDP1 cell noCPT 3.7µM (no result: TDP1 inh)
COc1ccc(OC)c2[nH]c(C(=O)O)cc12	none
COc1ccc(CC(=O)Nc2ccccc2C(F)(F)F)cc1S(=O)(=O)N1CCOCC1	none (no result: uPA generation, miR-21 reporter, TDP1 inh)
COC1OC(CO)C(N=C(C)C)C1O (configuration not stated)	none (no result: miR-21 reporter, TDP1 inh)
C=CCn1c(=O)c2c(nc(Br)n2Cc2ccccc2Cl)n(C)c1=O	TDP1 cell CPT 18µM, TDP1 cell noCPT inconclusive
CCOC(=O)Cn1c(=O)c2c(nc(Br)n2Cc2ccccc2Cl)n(C)c1=O	TDP1 cell CPT 18µM, TDP1 cell noCPT 23µM
O=CNc1cc(-c2ccccc2)cn2c(-c3ccc(F)c(Cl)c3)cnc12	TDP1 cell CPT 23µM, TDP1 cell noCPT 23µM (no result: uPA generation, miR-21 reporter, TDP1 inh)
Cc1cnc(CNc2ncnc3ccc(-c4cccc(NS(C)(=O)=O)c4)cc23)cn1	TDP1 cell CPT inconclusive (no result: uPA generation, miR-21 reporter, TDP1 inh)
CS(=O)(=O)Nc1cccc(-c2cc(NC=O)c3ncc(-c4ccc(F)c(Cl)c4)n3c2)c1	TDP1 cell CPT 9.2µM, TDP1 cell noCPT 15µM (no result: uPA generation, miR-21 reporter, TDP1 inh)
O=CNc1cc(-c2cccc(F)c2)cn2c(-c3ccc(F)c(Cl)c3)cnc12	TDP1 cell CPT 23µM, TDP1 cell noCPT 12µM (no result: uPA generation, miR-21 reporter, TDP1 inh)
Fc1ccc(-n2nc(-c3ccccc3)c3cnc4ccccc4c32)cc1Cl	none (no result: uPA generation)
COC(=O)CCCNC(=O)c1ccc(OS(=O)(=O)c2cc([N+](=O)[O-])ccc2C)cc1	none (no result: miR-21 reporter, TDP1 inh)
OC1CCN(Cc2nc(Cc3ccccc3Cl)no2)CC1	none
C[C@@H]1CCC[C@H](C)N1Cc1nc(Cc2ccccc2Cl)no1	TDP1 cell CPT 15µM, TDP1 cell noCPT inconclusive
Cc1cccc2cc(CN(CCN(C)C)C(=S)NCc3ccco3)c(=O)[nH]c12	TDP1 cell noCPT inconclusive
Cc1ccc2[nH]c(=O)c(CN(CCCN(C)C)C(=S)NCCc3ccccc3)cc2c1	TDP1 cell CPT inconclusive, TDP1 cell noCPT inconclusive
Cc1cccc2cc(CN(CCCN(C)C)C(=S)NCCc3ccccc3)c(=O)[nH]c12	TDP1 cell CPT 21µM, TDP1 cell noCPT 16µM
Cc1ccc2cc(CN(CCc3ccccc3)C(=S)NCCCN(C)C)c(=O)[nH]c2c1	TDP1 cell CPT inconclusive, TDP1 cell noCPT 26µM (no result: TDP1 inh)
COc1ccc(-c2c(C)nc3c(-c4ccc(F)cc4)cnn3c2N)cc1	none (no result: TDP1 inh)
